Source: publication PMC7539009
pKd: −log10 of the molar value.

Key:
[1] = biological target: GST-VARP residues 692-746 (Zn-fingernail 2) (UniProt Q96NW4); assay: SPR; as a1 at five temperatures (8 to 25 °C); van 't Hoff plot of ln KD against 1/T for the binding enthalpy
[2] = biological target: GST-VARP residues 396-460 (Zn-fingernail 1) (UniProt Q96NW4); assay: SPR; Biacore T200; GST fusion captured on goat anti-GST antibody coupled to a CM5 chip, GST-CLA on the blank flow cell; VPS29 as analyte, typically 40 to 0.3 μM; 20 mM Tris, 200 mM NaCl, 0.1 mM TCEP, 0.5 μM ZnCl2, pH 7.4; 12 °C for the KD of 2–3 µM; equilibrium and kinetic analysis, single site

dH [1]: -4.78 kcal/mol
pKd [2]: 5.30
Substance: VPS29 (short isoform, N-terminal sequence MLVL), untagged (from UniProt Q9UBQ0-1 1-182) (natural protein)
